{"sequences": {"note": "Sequences of proteins named here, by UniProt entry; tags and fusion partners are left off. A change or cut given only in a name is not applied to a line headed by its entry.", "UniProt Q62758": "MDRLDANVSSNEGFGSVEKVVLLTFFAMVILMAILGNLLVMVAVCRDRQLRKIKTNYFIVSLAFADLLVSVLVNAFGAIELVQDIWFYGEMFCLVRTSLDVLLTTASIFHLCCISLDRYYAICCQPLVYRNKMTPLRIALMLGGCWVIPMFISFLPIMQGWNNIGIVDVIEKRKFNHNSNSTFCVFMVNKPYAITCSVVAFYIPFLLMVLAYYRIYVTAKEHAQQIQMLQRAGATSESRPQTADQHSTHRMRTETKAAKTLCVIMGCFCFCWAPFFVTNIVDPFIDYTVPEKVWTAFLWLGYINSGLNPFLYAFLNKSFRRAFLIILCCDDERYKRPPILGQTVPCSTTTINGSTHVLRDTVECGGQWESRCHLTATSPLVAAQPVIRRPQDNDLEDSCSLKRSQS"}, "source": "ChEMBL document CHEMBL1129946", "about": "“New esters of 4-amino-5-chloro-2-methoxybenzoic acid as potent agonists and antagonists for 5-HT4 receptors” (J Med Chem, 1997)", "target": "5-hydroxytryptamine receptor 4 (Rattus norvegicus, UniProt Q62758)", "experiment": "Binding affinity towards 5-hydroxytryptamine 4 receptor was determined in rat striatal membranes using [3H]GR-113808 as radioligand", "assay_type": "cell membranes, Striatum, Membrane"}
{"smiles": "CCN(CC)CCNC(=O)c1cc(Cl)c(N)cc1OC", "note": "[METOCLOPRAMIDE]", "values": [{"measurement": "Ki", "value": "> 1000", "unit": "nM"}]}
{"smiles": "NCCc1c[nH]c2ccc(O)cc12", "note": "[SEROTONIN]", "values": [{"measurement": "Ki", "value": 187, "unit": "nM"}]}
